Results on one compound are retold here after ChEMBL document CHEMBL1148511, “Novel 5-azaindole factor VIIa inhibitors” (Bioorg Med Chem Lett, 2006).

The chains behind the UniProt entries cited, without tags or fusion partners. Where a name states a change or a piece, a line headed by the entry shows the natural chain unless it says otherwise.
UniProt P00742, whole entry, looked up: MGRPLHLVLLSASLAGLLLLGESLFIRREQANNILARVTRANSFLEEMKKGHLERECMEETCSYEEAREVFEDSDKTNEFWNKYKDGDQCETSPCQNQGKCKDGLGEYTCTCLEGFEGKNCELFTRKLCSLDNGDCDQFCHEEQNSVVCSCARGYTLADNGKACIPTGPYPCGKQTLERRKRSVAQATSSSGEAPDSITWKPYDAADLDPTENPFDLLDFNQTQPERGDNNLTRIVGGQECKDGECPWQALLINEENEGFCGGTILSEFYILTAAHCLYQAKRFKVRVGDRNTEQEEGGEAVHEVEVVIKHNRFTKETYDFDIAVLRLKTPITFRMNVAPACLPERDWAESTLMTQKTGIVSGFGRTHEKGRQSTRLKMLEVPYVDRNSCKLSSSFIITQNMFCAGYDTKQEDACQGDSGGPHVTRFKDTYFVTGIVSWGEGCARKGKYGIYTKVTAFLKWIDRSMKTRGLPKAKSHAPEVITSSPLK
UniProt P08709: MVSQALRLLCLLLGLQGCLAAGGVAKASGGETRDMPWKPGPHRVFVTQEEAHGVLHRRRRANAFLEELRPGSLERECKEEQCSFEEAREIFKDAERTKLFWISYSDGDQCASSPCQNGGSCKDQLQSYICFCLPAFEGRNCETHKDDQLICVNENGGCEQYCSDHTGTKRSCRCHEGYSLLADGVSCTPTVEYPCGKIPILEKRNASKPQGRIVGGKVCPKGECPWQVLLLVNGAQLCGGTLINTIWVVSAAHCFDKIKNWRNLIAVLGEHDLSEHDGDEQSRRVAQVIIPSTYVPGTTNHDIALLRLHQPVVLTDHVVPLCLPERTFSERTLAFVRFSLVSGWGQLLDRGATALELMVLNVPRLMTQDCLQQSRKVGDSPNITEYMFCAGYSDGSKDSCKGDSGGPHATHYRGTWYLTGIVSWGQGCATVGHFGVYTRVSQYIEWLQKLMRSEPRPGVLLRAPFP
UniProt P13726: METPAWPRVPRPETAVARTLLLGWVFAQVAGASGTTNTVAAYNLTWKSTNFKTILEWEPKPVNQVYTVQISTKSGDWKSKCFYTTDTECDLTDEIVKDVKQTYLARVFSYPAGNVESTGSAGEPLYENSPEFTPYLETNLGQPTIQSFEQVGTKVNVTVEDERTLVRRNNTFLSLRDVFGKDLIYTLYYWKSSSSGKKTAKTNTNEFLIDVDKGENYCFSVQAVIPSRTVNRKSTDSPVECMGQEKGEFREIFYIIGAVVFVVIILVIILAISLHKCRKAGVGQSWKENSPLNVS

Test [1] deals with Coagulation factor VII and X (Homo sapiens) (UniProt P00742+P08709). Description: Selectivity for F7a/TF over F10a. It counts as protein assay. A digest of the protocol:
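Reactions were started with pNA substrate at Km and read as A405 over time. Ki was fitted with the Morrison tight-binding equation.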

The target in test [2] is Coagulation factor VII/tissue factor (Homo sapiens) (UniProt P08709+P13726). Description: Selectivity for F7a/TF over trypsin. The test is classed as protein-complex assay. A digest of the protocol:
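Trypsin (10 nM) was tested without CaCl2, using Tosyl-Gly-Pro-Lys-pNA at Km. Readout was kinetic A405, and Ki was fitted with the Morrison tight-binding equation.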

Test [3] has as its target Thrombin and coagulation factor VII (Homo sapiens) (UniProt P00734+P08709). Description: Selectivity for F7a/TF over F2a. It counts as protein assay. The essentials:
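FVIIa (7 nM) with soluble tissue factor (11 nM) was run in 1.5 mM EDTA. Thrombin (12.7 nM) was run in 1 mM EDTA with Tosyl-Gly-Pro-Lys-pNA at Km. Hydrolysis was followed at 405 nm, and apparent Ki came from a Morrison equation fit.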

Regarding `NC(=O)NCc1cccc(-c2cccc(-c3cc4c[nH]ccc-4n3)c2O)c1`, the Ratio Ki worked out at 156 in test [1], 58 in test [2] and 89 in test [3].
